The target in assay [1] is T1, Adenosine receptor A1 (Homo sapiens, UniProt P30542). Briefly: Antagonist activity at wild type A1R (unknown origin) expressed in CHO-K1 cells assessed as inhibition of NECA reduced forskolin stimulated cAMP accumulation incubated for 30 mins. The format is functional, cell-based.
Assay [2] addresses T1, Adenosine receptor A1. Put plainly: Binding affinity to Nluc-A1R (unknown origin) expressed in HEK293 cells by nanoBRET assay. The format is cell-based. In general terms: Bioluminescence resonance energy transfer reports proximity on the nanometre scale.

Chains of the proteins cited; added tags and fusions are not shown.
UniProt P30542, whole entry: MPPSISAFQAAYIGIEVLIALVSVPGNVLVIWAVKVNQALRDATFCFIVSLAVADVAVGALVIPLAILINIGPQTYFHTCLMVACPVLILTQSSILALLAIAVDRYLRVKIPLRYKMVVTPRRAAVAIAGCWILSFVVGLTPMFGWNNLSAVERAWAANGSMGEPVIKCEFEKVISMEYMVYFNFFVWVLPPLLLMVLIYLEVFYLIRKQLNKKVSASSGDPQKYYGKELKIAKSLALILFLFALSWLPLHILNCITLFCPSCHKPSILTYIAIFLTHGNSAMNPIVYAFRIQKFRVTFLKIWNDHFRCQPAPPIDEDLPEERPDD

Results on one molecule are retold here after ChEMBL document CHEMBL5108055, “Dual A1/A3 Adenosine Receptor Antagonists: Binding Kinetics and Structure-Activity Relationship Studies Using Mutagenesis and Alchemical Binding Free Energy Calculations” (J Med Chem, 2022).

For orientation: IC50 means the midpoint of a concentration-inhibition curve. In general, Kd refers to the concentration at which binding is half-saturated. Higher therefore signals weaker binding.

For the molecule `O=C(Cc1ccccc1)Nc1nc2ccc(Cl)cc2c2nc(-c3ccco3)nn12`, the IC50 on Adenosine receptor A1 [1] is 47.9 nM. Besides, the Kd on Adenosine receptor A1 [2] was 15.8 nM.
